The record followed here is publication PMC7700221, “Antiproliferative Homoleptic and Heteroleptic Phosphino Silver(I) Complexes: Effect of Ligand Combination on Their Biological Mechanism of Action” (Molecules, 2020).

Chains of the proteins cited; added tags and fusions are not shown. Residues count along the entry.
UniProt Q16881, 151-649 limits assumed: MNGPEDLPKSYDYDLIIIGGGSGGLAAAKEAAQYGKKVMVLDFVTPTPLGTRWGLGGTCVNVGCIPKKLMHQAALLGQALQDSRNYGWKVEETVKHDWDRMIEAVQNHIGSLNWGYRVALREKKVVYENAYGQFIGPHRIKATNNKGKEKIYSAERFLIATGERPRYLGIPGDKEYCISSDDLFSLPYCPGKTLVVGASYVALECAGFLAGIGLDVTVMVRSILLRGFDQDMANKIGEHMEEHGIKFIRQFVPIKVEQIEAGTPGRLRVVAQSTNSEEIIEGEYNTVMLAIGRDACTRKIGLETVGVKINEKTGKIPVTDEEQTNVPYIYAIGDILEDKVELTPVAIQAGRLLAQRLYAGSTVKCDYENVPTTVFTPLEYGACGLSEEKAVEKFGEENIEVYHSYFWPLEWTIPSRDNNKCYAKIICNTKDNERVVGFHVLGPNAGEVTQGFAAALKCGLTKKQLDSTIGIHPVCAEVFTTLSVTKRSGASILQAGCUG

A word on the IC50: it is the midpoint of a concentration-inhibition curve. A lower IC50 goes with greater potency in that assay.

The target in the experiment is human TrxR1 (Homo sapiens, UniProt Q16881). The settings on record: isolated human TrxR1, NADPH-dependent reduction of DTNB at 412 nm.

Auranofin: it took 0.8 nM to reach half-maximal inhibition (IC50).
